Results taken from US20110111016A1, “NON-DNA BASE-CONTAINING POLYNUCLEOTIDE COMPOSITIONS AND THEIR USE FOR THE MODULATION OF IMMUNE RESPONSES” (priority 2009, published 2011).

Target: T1, human TLR8 (Homo sapiens, UniProt Q9NR97)
T1 construct: host or cells: HEK293
T1 sequence (Q9NR97 27-1041): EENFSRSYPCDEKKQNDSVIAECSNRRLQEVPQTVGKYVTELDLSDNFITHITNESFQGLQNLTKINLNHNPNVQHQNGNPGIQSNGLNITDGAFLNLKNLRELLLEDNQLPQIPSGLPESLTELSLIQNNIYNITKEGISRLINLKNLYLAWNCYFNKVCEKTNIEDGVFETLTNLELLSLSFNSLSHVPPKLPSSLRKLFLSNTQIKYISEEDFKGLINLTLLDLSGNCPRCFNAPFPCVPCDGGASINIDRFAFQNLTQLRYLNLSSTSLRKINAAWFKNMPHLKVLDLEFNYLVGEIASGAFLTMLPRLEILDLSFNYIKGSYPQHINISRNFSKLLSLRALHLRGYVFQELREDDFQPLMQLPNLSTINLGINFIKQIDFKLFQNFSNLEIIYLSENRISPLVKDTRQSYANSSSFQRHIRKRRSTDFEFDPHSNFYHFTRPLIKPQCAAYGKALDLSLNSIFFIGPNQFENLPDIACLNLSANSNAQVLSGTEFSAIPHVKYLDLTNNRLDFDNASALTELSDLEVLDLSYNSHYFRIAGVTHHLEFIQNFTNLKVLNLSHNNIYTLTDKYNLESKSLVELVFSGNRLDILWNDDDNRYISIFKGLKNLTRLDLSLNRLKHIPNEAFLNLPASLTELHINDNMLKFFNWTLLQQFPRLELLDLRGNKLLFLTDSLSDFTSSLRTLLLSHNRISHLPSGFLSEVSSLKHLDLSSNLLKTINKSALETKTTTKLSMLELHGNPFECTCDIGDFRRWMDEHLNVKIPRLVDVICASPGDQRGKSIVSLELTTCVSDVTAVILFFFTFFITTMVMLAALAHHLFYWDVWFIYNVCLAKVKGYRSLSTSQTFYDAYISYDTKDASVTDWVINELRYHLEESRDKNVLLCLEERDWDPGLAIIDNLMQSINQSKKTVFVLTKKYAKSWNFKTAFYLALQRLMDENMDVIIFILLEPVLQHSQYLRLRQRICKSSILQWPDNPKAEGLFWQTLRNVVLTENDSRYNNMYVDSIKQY
Assay: NF-κB activation (secreted alkaline phosphatase reporter) in HEK293 cells expressing human TLR8
Format: cell-based
Details: HEK293/hTLR8 cell line; at 1 μg/mL; 16-20 hours

TLR activation, Optical Density at 650 nm, hTLR8, positive control: 3.137
Substance: CL075 [reference compound]
